According to US20110021524A1, “COMPOSITIONS AND METHODS FOR TREATING CANCERS” (IRM LLC, priority 2008, published 2011):
Like-named read-outs stand apart in the source and are kept apart here.

Key:
M351T BCR-ABL = target: T1, M351T BCR-ABL (Homo sapiens, UniProt P00519, M351T); test: Ba/F3 cellular proliferation assay, M351T BCR-ABL; format: cell-based; conditions: Ba/F3 cells, 48 hour; read-out: IC50, cellular potency against M351T mutant
T1 construct: BCR (N-terminal fusion partner); human BCR, P11274; expressed in transfected cells; host or cells: Ba/F3; the other entry of the earlier key: BCR (P11274, Breakpoint cluster region protein)

T315I BCR-ABL [1] = target: T2, T315I BCR-ABL (Homo sapiens, UniProt P00519, T315I); conditions: read-out: IC50, T315I BCR-ABL-dependent proliferation
T315I BCR-ABL [2] = target: T2, T315I BCR-ABL; test: cell-based
G250E BCR-ABL = target: T3, G250E BCR-ABL (Homo sapiens, UniProt P00519, G250E); test: Ba/F3 cellular proliferation assay, G250E BCR-ABL; format: cell-based; conditions: Ba/F3 cells, 48 hour; read-out: IC50, G250E mutant
T3 construct: BCR (N-terminal fusion partner); human BCR, P11274; expressed in transfected cells; host or cells: Ba/F3; the other entry of the earlier key: BCR (P11274, Breakpoint cluster region protein)

## O=C(NCCO)c1cccc(-c2cc(Nc3ccc(OC(F)(F)F)cc3)ncn2)c1 [GNF-5, N-(2-hydroxyethyl)-3-(6-(4-(trifluoromethoxy)phenylamino)pyrimidin-4-yl)benzamide]
M351T BCR-ABL
  IC50: 930 nM
T315I BCR-ABL [1]
  IC50: 760 nM
T315I BCR-ABL [2]
  IC50: > 5000 nM
G250E BCR-ABL
  IC50: 4520 nM
